According to the CheMixHub viscosity set:

Experiment: xn = mol fraction of the nth substance listed

OCCOCCOCCOCCO + CS(C)=O
viscosity [mPa·s], 101 kPa
Details	293.15 K	298.15 K	303.15 K	308.15 K	313.15 K	318.15 K
x1 = 0.0207	2.572	2.337	1.996	1.81	1.636	1.481
x1 = 0.0428	2.938	2.711	2.3	2.018	1.835	1.655
x1 = 0.0663	3.446	3.224	2.667	2.315	2.085	1.872
x1 = 0.0914	4.068	3.709	3.106	2.675	2.397	2.142
x1 = 0.1182	4.775	4.327	3.6	3.077	2.738	2.437
x1 = 0.1471	5.582	5.123	4.195	3.583	3.129	2.768
x1 = 0.1781	6.637	6.005	4.868	4.095	3.601	3.165
x1 = 0.2115	7.853	7.066	5.668	4.726	4.135	3.609
x1 = 0.2476	9.248	8.164	6.588	5.447	4.738	4.112
x1 = 0.2869	10.82	9.589	7.658	6.291	5.445	4.692
x1 = 0.3296	13	11.29	8.926	7.264	6.237	5.357
x1 = 0.3763	15.34	13.23	10.39	8.399	7.166	6.116
x1 = 0.4276	18.19	15.62	12.14	9.711	8.224	6.953
x1 = 0.4842	21.37	18.18	14.05	11.17	9.404	7.915
x1 = 0.5469	25.23	21.25	16.33	12.88	10.74	9.016
x1 = 0.6167	29.66	24.85	18.88	14.79	12.28	10.22
x1 = 0.6951	34.9	28.92	21.8	16.99	14.01	11.58
x1 = 0.7836	41.07	33.7	25.23	19.52	16.03	13.13
x1 = 0.8843	48.09	38.92	29.17	22.37	18.21	14.84

OCCOCCOCCOCCO + CN(C)C=O
viscosity [mPa·s], 100 kPa
Details	293.15 K	298.15 K	303.15 K	308.15 K	313.15 K	318.15 K
x1 = 0.0194	1.01	0.955	0.891	0.843	0.784	0.746
x1 = 0.0401	1.14	1.06	0.99	0.929	0.87	0.826
x1 = 0.0623	1.32	1.24	1.14	0.999	0.992	0.869
x1 = 0.086	1.54	1.43	1.31	1.14	1.14	1.07
x1 = 0.1115	1.87	1.72	1.54	1.33	1.33	1.24
x1 = 0.1389	2.22	2.03	1.83	1.69	1.54	1.42
x1 = 0.1685	2.66	2.4	2.16	2	1.8	1.53
x1 = 0.2006	3.19	2.86	2.55	2.31	2.11	1.91
x1 = 0.2354	3.87	3.44	3.03	2.76	2.47	2.24
x1 = 0.2734	4.75	4.17	3.66	3.29	2.92	2.64
x1 = 0.315	5.87	5.11	4.42	3.95	3.48	3.12
x1 = 0.3608	7.34	6.31	5.41	4.8	4.19	3.73
x1 = 0.4114	9.17	7.82	6.65	5.85	5.06	4.45
x1 = 0.4675	11.7	9.84	8.24	7.19	6.18	5.38
x1 = 0.5303	14.9	12.5	10.3	8.9	7.57	6.52
x1 = 0.6008	19.2	16	13	11.1	9.33	7.96
x1 = 0.6808	25.1	20.5	16.5	13.9	11.5	9.79
x1 = 0.772	32.9	26.5	21	17.6	14.1	12.2
x1 = 0.8773	43.9	34.7	27.2	22.4	17.6	15.3
